# Assays:
# Chains of the proteins cited; added tags and fusions are not shown. Residues count along the entry.
# UniProt P23458, 875-1153 limits assumed: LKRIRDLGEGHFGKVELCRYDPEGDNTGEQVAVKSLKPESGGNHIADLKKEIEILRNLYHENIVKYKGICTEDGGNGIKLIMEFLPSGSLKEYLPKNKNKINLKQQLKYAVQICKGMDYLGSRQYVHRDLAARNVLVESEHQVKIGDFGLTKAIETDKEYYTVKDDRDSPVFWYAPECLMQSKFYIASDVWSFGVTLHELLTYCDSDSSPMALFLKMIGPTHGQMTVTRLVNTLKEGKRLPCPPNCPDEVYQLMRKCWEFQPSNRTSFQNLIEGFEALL
# UniProt O60674, 849-1124 limits assumed: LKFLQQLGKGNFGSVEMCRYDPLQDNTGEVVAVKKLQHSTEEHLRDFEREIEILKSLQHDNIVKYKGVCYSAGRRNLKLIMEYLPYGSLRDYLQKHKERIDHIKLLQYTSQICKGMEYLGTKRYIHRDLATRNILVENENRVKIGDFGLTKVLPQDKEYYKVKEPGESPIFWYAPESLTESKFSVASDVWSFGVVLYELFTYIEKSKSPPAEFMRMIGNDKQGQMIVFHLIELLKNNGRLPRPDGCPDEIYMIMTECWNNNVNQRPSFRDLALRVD
# [1] = biological target: isolated recombinant JAK1 kinase domain (Homo sapiens (Human), UniProt P23458)
# [2] = tested on: JAK1-dependent STAT6 phosphorylation downstream of IL-13 stimulation in TF-1 human erythroleukemia cells
# [3] = biological target: isolated recombinant JAK2 kinase domain (Homo sapiens (Human), UniProt O60674)
# [4] = tested on: JAK1-dependent STAT6 phosphorylation downstream of IL-13 stimulation in BEAS-2B human bronchial epithelial cells
SMILES,Ki [1] [nM],IC50 [2] [nM],Ki [3] [nM],IC50 [4] [nM]
O=C(NCC1COC2(CCNCC2)C1)c1ccc(Nc2nc3c(C4=CCN(C(=O)CCC(F)(F)F)CC4)cccn3n2)cc1 (stereo not drawn),0.88,305,–,–
CCOC(=O)N1CC=C(c2cccn3nc(Nc4ccc(C(=O)N5CCCC6(CNCCO6)C5)cc4)nc23)CC1 (stereo not drawn),3.05,–,–,–
O=C(NCC1CCN(CC(F)(F)F)CC1)c1ccc(Nc2nc3c(N4CCC(CO)(c5ccc(Cl)cc5)CC4)cccn3n2)cc1,0.88,112,0.94,533
CC1CC(C)CN(CCNC(=O)c2ccc(Nc3nc4c(N5CCC(CO)(c6ccc(Cl)cc6)CC5)cccn4n3)cc2)C1 (stereo not drawn),–,152,–,259

# Source: patent US9873709B2 (priority 2013, dated 2018)
